Source: patent publication US9708370B2, “Azapeptides as CD36 binding compounds” (VALORISATION-RECHERCHE, LIMITED PARTNERSHIP, priority 2007, dated 2017)
Where two headings read alike, the source gives them in different places.

Sequences of proteins named here, by UniProt entry; tags and fusion partners are left off. A change or cut given only in a name is not applied to a line headed by its entry.
UniProt Q92847, whole entry: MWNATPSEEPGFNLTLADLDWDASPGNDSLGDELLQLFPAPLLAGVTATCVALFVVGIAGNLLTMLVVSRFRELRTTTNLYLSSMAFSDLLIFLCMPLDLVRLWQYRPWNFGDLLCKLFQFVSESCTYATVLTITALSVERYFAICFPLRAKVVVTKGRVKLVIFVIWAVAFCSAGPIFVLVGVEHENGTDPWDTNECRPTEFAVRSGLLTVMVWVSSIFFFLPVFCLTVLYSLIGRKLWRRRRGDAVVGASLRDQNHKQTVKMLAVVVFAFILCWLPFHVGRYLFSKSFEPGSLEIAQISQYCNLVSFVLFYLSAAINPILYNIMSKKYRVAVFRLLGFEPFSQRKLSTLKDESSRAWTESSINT
UniProt Q07969: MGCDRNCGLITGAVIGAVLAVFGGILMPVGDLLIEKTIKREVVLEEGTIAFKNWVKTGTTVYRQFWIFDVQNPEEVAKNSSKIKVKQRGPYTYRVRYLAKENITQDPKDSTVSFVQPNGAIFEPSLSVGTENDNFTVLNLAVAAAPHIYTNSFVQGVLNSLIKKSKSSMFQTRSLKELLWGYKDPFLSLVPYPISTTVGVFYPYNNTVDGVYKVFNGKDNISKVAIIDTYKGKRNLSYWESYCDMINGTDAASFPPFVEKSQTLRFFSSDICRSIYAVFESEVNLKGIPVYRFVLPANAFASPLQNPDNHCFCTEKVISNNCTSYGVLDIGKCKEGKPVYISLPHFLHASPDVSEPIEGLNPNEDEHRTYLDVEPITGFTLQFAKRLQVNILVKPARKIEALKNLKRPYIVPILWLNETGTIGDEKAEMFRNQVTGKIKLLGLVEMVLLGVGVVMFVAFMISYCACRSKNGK

Legend:
human GHS-R1a = human GHS-R1a (Homo sapiens (Human), UniProt Q92847); assay: GHS-R1a binding assay, competition with 125I-ghrelin on membranes of LLC-PK1 cells expressing human GHS-R1a
Description: Rat ghrelin was radio iodinated with Na^125I using the lodo-Beads iodination reagent (Pierce #28665). Briefly, an lodo-bead was incubated with 2 mCi of Na^125I (Amersham) in 100 μL of 50 mM sodium phosphate buffer, pH 7.0 for 5 min at 22° C. The reaction was started by adding 20 nmol of the peptide (1 mM in 0.1 M acetic acid). The tube was incubated for 10 min at 22° C. The iodination was terminated by adding 1 mL of 0.1% TFA. The mono-iodinated peptide was purified by reverse-phase HPLC using a Vydac C18 ([…]) column (30 cm×0.39 cm) in combination with a binary elution system of (A) 0.1% TFA in H2O and (B) 0.1% TFA, 10% H2O, 90% acetonitrile. Fractions of 0.5 mL were collected and analyzed by its radioactive content.
Cells (1.4×10^6) were plated in 100 mm plates and transfected 24 h later with pCDNA3.1-hGHS-R1a (UMR cDNA Resource Center #GHSR0A0000) following the CaHPO4 precipitation method. Briefly, 40 μg of plasmid DNA was diluted in 500 μL of sterile H2O and added to an equal volume of a 4× CaCl2, pH 7.9 solution (2 mM Tris-HCl, 0.2 mM EDTA, 500 mM CaCl2). The mixture was then added slowly with air bubbles to 1 mL of 2× Hepes-buffered saline, pH 7.1 (50 mM Hepes, 280 mM NaCl, 1.5 mM Na2HPO4). After 30 min at room temperature, 1 mL was distributed evenly over the cells and let overnight. The medium was changed the next morning and the membrane preparation was made two days later.
Cells were washed twice with PBS and once with ice-cold homogenization buffer (50 mM Tris-HCl, pH 7.3, 5 mM MgCl2, 2.5 mM EDTA, 30 μg/ml bacitracin). Cells were scraped and harvested in 1.5 mL tubes. […] Total protein concentrations were determined with the BCA protein assay kit (Pierce).
Competition experiments were performed by incubating 50 μg of LLC-PK1 membranes expressing human GHS-R1a with 15 fmol of ^125I-Ghrelin and increasing concentrations of unlabeled ghrelin or with increasing concentrations of azapeptides derivatives in 0.5 mL of binding buffer. […] Filters were counted in a LKB gamma counter. Curves were analyzed using Prism software (GraphPad Software Inc).

CD36 = CD36 (Rattus norvegicus (Rat), UniProt Q07969); assay: CD36 receptor covalent photolabelling binding assay, competition with [125I]Tyr-Bpa-Ala-hexarelin on rat cardiac membranes; conditions: Table 3, [125I]Tyr-Bpa-Ala-hexarelin as radioligand, read-out: IC50, binding affinity of aza peptide derivatives towards CD36
Description: The hearts from Sprague Dawley rats (300 g-325 g) from Charles River, used as a source of cardiac membranes, were prepared as follows: the heart was washed with ice-cold saline, and fatty and connective tissue was removed. The tissue was cut into small pieces with scissors and placed in a Sorvall centrifuge tube containing 5 ml/g of fresh tissue of Buffer A (10 mM NaHCO3, 5 mM NaN3, 10 μM Pefabloc, 0.1 μM Aprotinin, 1 μM Pepstatin A, 1 μM Leupeptin, pH 7.0). The suspension was homogenized with a Polytron at low speed, 3×15 sec. The homogenate was centrifuged at 8 700×g for 20 min and the supernatant was put on ice. […] Protein concentration was determined with bicinchoninic acid (BCA) method, using BSA as standard. […]
Nonspecific binding was defined as binding not displaced by 50 μM corresponding peptide. […] The gels resulting from SDS/PAGE were fixed, colored in Coomassie Brilliant Blue R-250, dried, exposed to a storage phosphor intensifying screen (Amersham Biosciences), and analysed by using a Typhoon PhosphorImager (Amersham Biosciences) and ImageQuant 5.0 software to establish competition curves. Protein bands were quantified by densitometry. The covalent binding signal of 87 kDa was analyzed by densitometry using Typhoon Phospholmager™ (Typhoon, Amersham Biosciences) and ImageQuant 5.0® software to set competition curves. […]

[1] = Table 4, LLCPK-1 membranes overexpressing GHS-R1a, radioiodinated (1-28) rat ghrelin as tracer, read-out: EC50 (text: IC50 values from competition curves in GHS-R1a radioreceptor assay)

| SMILES | IC50 (human GHS-R1a; Table 5, read-out: IC50 Binding GHS-R1a) | IC50 (CD36) | IC50 (human GHS-R1a; [1]) |
| --- | --- | --- | --- |
| C[C@H](N)C(=O)N[C@H](Cc1c[nH]c2ccccc12)C(=O)NNC(=O)N[C@@H](Cc1c[nH]c2ccccc12)C(=O)N[C@H](Cc1ccccc1)C(=O)N[C@@H](CCCCN)C(N)=O [CP-2A(v), Ala-D-Trp-azaGly-Trp-D-Phe-Lys-NH2] | 568 nM |  |  |
| C[C@H](NC(=O)N(Cc1ccc(O)cc1)NC(=O)[C@@H](N)Cc1cnc[nH]1)C(=O)N[C@@H](Cc1c[nH]c2ccccc12)C(=O)N[C@H](Cc1ccccc1)C(=O)N[C@@H](CCCCN)C(N)=O [DBG175p, His-azaTyr-Ala-Trp-D-Phe-Lys-NH2] |  | 1800 nM |  |
| NCCCC[C@H](NC(=O)[C@@H](Cc1ccccc1)NC(=O)[C@H](Cc1c[nH]c2ccccc12)NC(=O)NNC(=O)[C@@H](Cc1c[nH]c2ccccc12)NC(=O)[C@@H](N)Cc1cnc[nH]1)C(N)=O [DBG188p, His-D-Trp-azaGly-Trp-D-Phe-Lys-NH2] |  |  | 808 nM |
| C[C@H](NC(=O)N(CCc1ccccc1)NC(=O)[C@@H](N)Cc1cnc[nH]1)C(=O)N[C@@H](Cc1c[nH]c2ccccc12)C(=O)N[C@H](Cc1ccccc1)C(=O)N[C@@H](CCCCN)C(N)=O [DBG253-11, His-azahomoPhe-Ala-Trp-D-Phe-Lys-NH2] |  | 36800 nM | 729 nM |
